Test results as given in PubChem BioAssay AID743266 (National Center for Advancing Translational Sciences (NCATS), 2014).
The list shows a part of the results, in another mix than the full data. The source made the active and inactive calls. Calls follow the shape of the dose curve; as a rule, active = well fitted activation curve with a large enough effect; inconclusive = small, poorly fitted or top-dose-only effect, or another doubt; inactive = no such curve, though single readings can be large or run the other way.

Protein sequences, listed by entry. Tags and fused reporters are not part of them. Lines headed by an entry give the natural chain unless they say otherwise; changes in a name come on top.
UniProt Q03431: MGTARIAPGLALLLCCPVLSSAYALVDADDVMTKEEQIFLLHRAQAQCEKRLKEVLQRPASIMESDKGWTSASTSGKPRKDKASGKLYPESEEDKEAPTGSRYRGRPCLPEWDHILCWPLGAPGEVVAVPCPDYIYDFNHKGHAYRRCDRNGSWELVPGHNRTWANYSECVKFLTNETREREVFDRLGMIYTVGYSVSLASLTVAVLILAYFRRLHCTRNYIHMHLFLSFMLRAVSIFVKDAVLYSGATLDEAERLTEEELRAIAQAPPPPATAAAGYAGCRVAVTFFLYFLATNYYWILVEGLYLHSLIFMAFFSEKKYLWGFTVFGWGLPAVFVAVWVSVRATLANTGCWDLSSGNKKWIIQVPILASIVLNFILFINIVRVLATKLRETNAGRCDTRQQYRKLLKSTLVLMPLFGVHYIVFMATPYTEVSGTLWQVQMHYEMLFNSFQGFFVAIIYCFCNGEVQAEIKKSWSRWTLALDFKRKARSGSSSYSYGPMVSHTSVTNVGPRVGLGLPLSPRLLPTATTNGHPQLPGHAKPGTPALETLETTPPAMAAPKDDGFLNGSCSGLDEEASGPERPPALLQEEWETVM

Molecular target: Parathyroid hormone/parathyroid hormone-related peptide receptor (Homo sapiens) (UniProt Q03431)
Experiment: qHTS for PTHR1 Agonists: Primary Screen; also: nearly all actives have a fitted effect of over 55% in size
Settings: HEK293 GP2 PTHR1 cells, GloSensor cAMP luminescence, 1 h; activation: at 115 µM (top of the series) unless noted

| Compound | activation | outcome |
| --- | --- | --- |
| O=P(Nc1nccs1)(c1ccccc1)c1ccccc1 | inactive: -13.4% [at 57.5 µM] | – |
| CC(C)C(=O)NC(Sc1ccccc1)C(Cl)(Cl)Cl (centres undefined) | inactive | – |
| c1nnnn1CCn1cnnn1 | inactive | – |
| COc1ccc(N)c([N+](=O)[O-])c1[N+](=O)[O-] | inactive | – |
| Nc1ccc(CCCCOc2ccccc2)cc1 | inactive: -48.8% | – |
| CN(C)C1(CNC(=O)c2ccc(Cl)c(S(N)(=O)=O)c2)CCCCC1 | inactive | – |
| O=P(Nc1ccccn1)(c1ccc(Br)cc1)c1ccc(Br)cc1 | inactive: -13.3% | – |
| O=P(Nc1nc2ccccc2s1)(c1ccccc1)c1ccccc1 | inactive: -4.02% | – |
| C[C@H]1OP(=O)(Oc2ccccc2)[C@H](O)[C@H](O)[C@H]1N=[N+]=[N-] (some centres undefined) | inactive: -22.8% | – |
| CC(=O)NC(SC(=S)N(C)C)C(Cl)(Cl)Cl (centres undefined) | inactive | – |
| O=[N+]([O-])c1ncn(CCn2cnc([N+](=O)[O-])n2)n1 | inactive | – |
| O=[N+]([O-])c1ccc(O)c(/C=N/Nc2ccc([N+](=O)[O-])cc2[N+](=O)[O-])c1 | inactive | – |
| O=[As](O)(c1ccccc1)c1ccc(O)cc1 | inactive | – |
| C(Cc1nn[nH]n1)Cc1nn[nH]n1 | inactive | – |
| Nc1ccc([As](=O)(O)c2ccc([N+](=O)[O-])cc2)cc1 | inactive | – |
| O=C(OC1CN2CCC1CC2)c1cccc(Cl)c1 (centres undefined) | – | inactive [at 57.5 µM] |
| O=C(NC1CCS(=O)(=O)C1)NP(=S)(Oc1ccccc1)Oc1ccccc1 (centres undefined) | inactive | – |
| CCNC(=S)/N=C(\N)N[N+](=O)[O-] | inactive | – |
| c1ccc(-c2nn[nH]n2)c(-c2nn[nH]n2)c1 | inactive: -46.2% | – |
| Cc1ccc(NP(=O)(Oc2cccc(C)c2)Oc2cccc(C)c2)nc1 | inactive | – |
| O=P1(N(CCCl)CCCl)OCCC2CCCCN21 (centres undefined) | inactive | – |
| COC(=O)c1cc2c(s1)N=C(c1ccccc1)N(C)P2(=O)N1CCOCC1 (centres undefined) | – | inactive [at 57.5 µM] |
| CC(=O)NC(SC(=S)N(CC(C)C)CC(C)C)C(Cl)(Cl)Cl (centres undefined) | inactive | – |
| Cc1ccc(OP(=O)(Nc2ccccn2)Oc2ccc(C)cc2)cc1 | inactive: -37.1% | – |
| O=C(OC1CN2CCC1CC2)c1ccccc1 (centres undefined) | inactive | – |
| CCC(=O)N1C2C3N(C(=O)CC)C1C1N(C(=O)CC)C(C(N1C(=O)CC)N3C(=O)CC)N2C(=O)CC | inactive: -18.8% [at 57.5 µM] | – |
| CC(NC(=O)COC(=O)C(O)(c1ccccc1)c1ccccc1)c1ccccc1 (centres undefined) | inactive: -75% | – |
| Cc1ccccc1OP(=O)(Nc1ccccn1)Oc1ccccc1C | inactive: -40.2% | – |
| O=c1c2cc([N+](=O)[O-])ccc2[nH]c2c([N+](=O)[O-])cc([N+](=O)[O-])cc12 | inactive: -21.7% | – |
